Legend:
Conditions in all cases: dose 100.0 nM
[1] = biological target: Vascular endothelial growth factor receptor 3 (Homo sapiens) (UniProt P35916)
[2] = biological target: Proto-oncogene tyrosine-protein kinase receptor Ret (Homo sapiens) (UniProt P07949)
[3] = biological target: Platelet-derived growth factor receptor alpha (Homo sapiens) (UniProt P16234)
[4] = biological target: Platelet-derived growth factor receptor beta (Homo sapiens) (UniProt P09619)
[5] = biological target: Macrophage colony-stimulating factor 1 receptor (Homo sapiens) (UniProt P07333)

Amino acid sequences for entries named in this document (tags omitted). A change or cut given only in a name is not applied to a line headed by its entry.
UniProt P35916, whole entry: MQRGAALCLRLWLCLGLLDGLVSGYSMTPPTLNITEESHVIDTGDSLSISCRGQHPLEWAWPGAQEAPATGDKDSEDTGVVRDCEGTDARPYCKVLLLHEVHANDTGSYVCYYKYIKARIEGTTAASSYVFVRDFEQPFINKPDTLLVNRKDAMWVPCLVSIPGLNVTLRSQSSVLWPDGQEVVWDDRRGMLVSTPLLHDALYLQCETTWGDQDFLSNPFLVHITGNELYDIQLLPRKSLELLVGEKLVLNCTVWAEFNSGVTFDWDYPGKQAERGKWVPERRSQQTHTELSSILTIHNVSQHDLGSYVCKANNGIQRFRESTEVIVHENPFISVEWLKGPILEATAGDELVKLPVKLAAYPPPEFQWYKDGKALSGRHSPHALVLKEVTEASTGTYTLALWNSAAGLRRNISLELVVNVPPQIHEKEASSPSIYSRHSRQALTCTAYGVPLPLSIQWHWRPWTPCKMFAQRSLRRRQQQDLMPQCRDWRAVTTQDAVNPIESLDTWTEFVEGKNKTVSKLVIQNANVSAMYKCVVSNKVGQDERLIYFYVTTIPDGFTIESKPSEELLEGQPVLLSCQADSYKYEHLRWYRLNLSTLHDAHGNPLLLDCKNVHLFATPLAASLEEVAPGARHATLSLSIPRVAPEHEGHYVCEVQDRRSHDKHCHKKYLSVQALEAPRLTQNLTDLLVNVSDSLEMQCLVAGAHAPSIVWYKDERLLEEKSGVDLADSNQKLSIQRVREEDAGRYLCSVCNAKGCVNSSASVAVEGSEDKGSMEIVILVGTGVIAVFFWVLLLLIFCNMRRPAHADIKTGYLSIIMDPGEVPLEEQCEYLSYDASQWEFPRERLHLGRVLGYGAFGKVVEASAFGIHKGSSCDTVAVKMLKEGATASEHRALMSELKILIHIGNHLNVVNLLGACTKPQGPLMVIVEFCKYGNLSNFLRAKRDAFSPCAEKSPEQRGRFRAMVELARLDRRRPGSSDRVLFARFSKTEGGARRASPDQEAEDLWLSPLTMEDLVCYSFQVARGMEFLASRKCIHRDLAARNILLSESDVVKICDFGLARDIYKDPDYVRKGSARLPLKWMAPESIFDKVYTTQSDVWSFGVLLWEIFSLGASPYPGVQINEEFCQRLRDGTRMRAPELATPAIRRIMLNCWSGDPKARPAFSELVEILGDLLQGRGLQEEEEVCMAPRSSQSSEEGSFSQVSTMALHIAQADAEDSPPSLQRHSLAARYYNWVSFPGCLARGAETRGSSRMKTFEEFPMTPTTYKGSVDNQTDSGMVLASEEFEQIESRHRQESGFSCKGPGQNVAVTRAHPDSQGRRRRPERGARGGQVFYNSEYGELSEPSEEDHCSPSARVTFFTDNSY
UniProt P07949, whole entry: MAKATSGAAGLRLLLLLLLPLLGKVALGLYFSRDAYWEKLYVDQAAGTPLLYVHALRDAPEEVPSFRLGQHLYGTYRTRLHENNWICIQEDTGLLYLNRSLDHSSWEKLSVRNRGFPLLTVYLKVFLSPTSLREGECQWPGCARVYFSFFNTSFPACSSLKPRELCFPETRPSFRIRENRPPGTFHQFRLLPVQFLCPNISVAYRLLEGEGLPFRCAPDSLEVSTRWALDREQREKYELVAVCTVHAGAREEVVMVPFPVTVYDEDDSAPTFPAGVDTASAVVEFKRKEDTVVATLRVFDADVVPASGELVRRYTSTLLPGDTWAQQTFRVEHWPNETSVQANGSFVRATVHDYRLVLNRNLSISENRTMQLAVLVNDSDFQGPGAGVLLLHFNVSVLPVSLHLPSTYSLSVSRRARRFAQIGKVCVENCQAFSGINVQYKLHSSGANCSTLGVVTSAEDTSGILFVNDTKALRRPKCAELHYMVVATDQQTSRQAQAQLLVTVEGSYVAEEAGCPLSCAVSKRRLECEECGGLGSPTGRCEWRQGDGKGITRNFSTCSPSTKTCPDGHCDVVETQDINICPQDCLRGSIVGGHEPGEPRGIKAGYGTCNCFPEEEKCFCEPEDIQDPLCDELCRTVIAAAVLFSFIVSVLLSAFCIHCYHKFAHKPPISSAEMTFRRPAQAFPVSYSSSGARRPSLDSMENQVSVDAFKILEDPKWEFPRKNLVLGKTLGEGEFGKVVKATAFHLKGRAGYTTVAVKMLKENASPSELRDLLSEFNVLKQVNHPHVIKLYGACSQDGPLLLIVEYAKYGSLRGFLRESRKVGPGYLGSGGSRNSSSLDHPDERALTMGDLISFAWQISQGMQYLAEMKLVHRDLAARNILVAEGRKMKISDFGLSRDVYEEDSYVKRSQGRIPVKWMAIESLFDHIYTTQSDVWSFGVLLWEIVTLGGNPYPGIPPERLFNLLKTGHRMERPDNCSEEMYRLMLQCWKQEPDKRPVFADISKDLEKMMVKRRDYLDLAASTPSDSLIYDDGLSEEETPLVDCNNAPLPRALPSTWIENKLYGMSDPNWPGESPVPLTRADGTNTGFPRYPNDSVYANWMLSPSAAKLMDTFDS
UniProt P16234: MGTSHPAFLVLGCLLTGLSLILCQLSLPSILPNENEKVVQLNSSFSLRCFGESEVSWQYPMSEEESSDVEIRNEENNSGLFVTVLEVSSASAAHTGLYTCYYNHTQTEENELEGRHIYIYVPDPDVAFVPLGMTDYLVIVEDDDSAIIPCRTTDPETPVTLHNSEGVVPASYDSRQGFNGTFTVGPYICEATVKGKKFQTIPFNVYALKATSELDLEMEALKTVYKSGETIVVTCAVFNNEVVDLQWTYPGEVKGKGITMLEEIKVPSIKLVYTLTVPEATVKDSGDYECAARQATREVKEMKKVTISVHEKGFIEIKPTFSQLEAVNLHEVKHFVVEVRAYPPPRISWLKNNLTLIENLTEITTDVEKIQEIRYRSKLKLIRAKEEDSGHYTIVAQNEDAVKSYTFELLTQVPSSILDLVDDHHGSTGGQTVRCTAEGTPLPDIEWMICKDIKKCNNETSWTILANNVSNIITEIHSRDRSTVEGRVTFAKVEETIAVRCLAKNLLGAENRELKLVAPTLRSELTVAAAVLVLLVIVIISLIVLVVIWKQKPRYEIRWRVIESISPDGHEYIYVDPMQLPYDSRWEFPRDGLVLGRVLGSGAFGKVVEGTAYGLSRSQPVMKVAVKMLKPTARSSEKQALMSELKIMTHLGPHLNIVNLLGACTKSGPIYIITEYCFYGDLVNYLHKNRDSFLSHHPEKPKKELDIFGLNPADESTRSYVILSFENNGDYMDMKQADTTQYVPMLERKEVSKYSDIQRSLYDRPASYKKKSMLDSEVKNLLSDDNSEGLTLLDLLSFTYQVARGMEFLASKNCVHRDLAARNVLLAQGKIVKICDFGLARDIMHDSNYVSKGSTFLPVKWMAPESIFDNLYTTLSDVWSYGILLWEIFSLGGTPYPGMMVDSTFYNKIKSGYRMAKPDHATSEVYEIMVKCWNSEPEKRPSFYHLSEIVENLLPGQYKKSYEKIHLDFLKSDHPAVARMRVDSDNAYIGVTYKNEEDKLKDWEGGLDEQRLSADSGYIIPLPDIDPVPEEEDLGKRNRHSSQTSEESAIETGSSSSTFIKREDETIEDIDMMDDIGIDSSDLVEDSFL
UniProt P09619, whole entry: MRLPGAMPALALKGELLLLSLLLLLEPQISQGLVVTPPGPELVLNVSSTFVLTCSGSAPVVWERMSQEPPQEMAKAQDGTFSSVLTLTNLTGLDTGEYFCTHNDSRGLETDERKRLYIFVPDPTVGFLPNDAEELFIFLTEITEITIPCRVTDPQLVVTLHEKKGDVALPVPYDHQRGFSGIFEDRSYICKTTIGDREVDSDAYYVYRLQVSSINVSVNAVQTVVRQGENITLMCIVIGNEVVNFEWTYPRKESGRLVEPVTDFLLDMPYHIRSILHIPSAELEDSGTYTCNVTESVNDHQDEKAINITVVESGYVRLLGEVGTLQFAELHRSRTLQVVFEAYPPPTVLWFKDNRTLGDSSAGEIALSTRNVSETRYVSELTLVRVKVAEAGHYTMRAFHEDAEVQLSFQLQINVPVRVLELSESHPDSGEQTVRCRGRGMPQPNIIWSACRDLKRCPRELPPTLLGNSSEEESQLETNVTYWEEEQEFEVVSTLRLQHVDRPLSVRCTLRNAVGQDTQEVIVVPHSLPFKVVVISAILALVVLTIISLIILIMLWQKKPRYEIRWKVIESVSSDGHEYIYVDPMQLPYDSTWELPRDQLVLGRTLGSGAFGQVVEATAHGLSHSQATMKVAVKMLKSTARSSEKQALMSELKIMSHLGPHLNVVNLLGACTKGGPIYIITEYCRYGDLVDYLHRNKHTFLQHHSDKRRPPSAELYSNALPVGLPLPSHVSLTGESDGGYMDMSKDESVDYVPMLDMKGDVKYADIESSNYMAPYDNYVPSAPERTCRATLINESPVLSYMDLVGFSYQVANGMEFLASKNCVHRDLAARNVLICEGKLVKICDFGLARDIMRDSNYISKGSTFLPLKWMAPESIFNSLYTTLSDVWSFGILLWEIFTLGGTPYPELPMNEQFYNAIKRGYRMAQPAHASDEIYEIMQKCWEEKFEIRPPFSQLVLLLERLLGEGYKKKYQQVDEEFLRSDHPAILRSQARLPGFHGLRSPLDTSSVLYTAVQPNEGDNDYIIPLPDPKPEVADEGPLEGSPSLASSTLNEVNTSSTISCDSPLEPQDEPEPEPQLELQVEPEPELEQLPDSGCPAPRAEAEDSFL
UniProt P07333, whole entry: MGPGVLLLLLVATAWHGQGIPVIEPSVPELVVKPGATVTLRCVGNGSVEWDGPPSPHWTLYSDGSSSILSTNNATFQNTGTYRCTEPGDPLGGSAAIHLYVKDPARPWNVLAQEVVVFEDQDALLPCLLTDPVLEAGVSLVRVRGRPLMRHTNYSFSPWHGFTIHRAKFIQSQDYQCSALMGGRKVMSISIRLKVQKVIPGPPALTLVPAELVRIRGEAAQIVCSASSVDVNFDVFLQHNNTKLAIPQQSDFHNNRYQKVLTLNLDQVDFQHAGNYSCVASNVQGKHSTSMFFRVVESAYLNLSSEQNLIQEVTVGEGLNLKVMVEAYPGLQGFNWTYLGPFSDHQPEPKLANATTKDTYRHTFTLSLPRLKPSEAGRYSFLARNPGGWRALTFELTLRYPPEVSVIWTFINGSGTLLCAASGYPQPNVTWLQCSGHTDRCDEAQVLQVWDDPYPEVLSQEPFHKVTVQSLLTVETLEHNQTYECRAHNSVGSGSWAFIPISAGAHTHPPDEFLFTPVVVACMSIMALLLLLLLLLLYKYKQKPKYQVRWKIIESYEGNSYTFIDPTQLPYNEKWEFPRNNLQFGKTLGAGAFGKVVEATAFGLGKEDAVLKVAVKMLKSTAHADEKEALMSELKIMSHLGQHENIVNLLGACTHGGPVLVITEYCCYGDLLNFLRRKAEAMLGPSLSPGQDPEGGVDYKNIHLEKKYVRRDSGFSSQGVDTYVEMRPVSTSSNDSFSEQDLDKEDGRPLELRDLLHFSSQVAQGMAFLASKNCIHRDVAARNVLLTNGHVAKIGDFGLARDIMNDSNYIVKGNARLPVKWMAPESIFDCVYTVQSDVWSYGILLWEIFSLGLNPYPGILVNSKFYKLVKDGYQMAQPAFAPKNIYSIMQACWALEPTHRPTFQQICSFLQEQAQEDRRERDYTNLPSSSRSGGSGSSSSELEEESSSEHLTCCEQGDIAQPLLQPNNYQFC

## O=C1Nc2ccccc2/C1=C1/Nc2ccccc2/C1=N\OCC(=O)N1CCNCC1
[1]
  inhibition: 94%
[2]
  inhibition: 99%
[3]
  inhibition: 66%
[4]
  inhibition: 72%
[5]
  inhibition: 54%

Reference: ChEMBL document CHEMBL5120851, “Discovery of indirubin-3'-aminooxy-acetamide derivatives as potent and selective FLT3/D835Y mutant kinase inhibitors for acute myeloid leukemia” (Eur J Med Chem, 2022)
